Experiments:
human recombinant MAO-B [1] = target: T1, human recombinant MAO-B (Homo sapiens, UniProt P27338); assay: MAO-B inhibition kinetics, Lineweaver–Burk (Ki, type of inhibition); type: biochemical; parameters: purchased BD Biosciences (Bedford, MA, USA); conditions: kynuramine 1.90–500 μM, mean ± S.D. of triplicate experiments, read-out: Monoamine Oxidase B Ki
Experimental: The controls without inhibitor were also run simultaneously. Three sets of assays were performed at varying concentrations of the substrate for each experiment: one control without inhibitor and the others at two fixed concentrations of the inhibitor. The data were analyzed by double reciprocal Lineweaver–Burk plots to determine Ki (i.e., inhibition/binding affinity) values and the kinetic data, namely Km, Vmax, and Ki values, were computed by SigmaPlot 12 [9].
Modified flavonoids (1–4) c were evaluated against MAO-B at varying concentrations of kynuramine, a nonselective substrate, to investigate the nature of inhibition of the enzymes. Based on dose–concentration inhibition, three to five concentrations (below and above the concentration of IC50 values) were selected for the inhibition kinetics experiment.

The chains behind the UniProt entries cited, without tags or fusion partners.
UniProt P27338, whole entry: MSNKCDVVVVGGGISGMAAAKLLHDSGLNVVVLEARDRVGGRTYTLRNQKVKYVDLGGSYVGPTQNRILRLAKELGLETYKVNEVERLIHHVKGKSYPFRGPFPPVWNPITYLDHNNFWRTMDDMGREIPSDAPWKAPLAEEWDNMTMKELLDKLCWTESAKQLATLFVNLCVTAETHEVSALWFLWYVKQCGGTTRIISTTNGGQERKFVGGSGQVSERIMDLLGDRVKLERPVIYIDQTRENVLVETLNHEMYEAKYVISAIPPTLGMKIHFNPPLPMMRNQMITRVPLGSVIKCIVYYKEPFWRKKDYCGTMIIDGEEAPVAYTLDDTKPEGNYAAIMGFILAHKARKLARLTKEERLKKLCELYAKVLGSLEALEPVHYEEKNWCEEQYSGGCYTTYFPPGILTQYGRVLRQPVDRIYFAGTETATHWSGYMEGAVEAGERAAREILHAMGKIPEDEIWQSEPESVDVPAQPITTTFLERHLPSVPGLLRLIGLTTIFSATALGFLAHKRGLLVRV

human recombinant MAO-B [2] = target: T1, human recombinant MAO-B; assay: kynuramine oxidation deamination assay, MAO-B inhibition (IC50); type: biochemical; parameters: purchased BD Biosciences (Bedford, MA, USA); conditions: kynuramine 50 μM, mean ± S.D. of triplicate
Experimental: A fixed single concentration of kynuramine substrate and varying concentrations of the test inhibitor were used to determine the IC50 values. […] These concentrations of kynuramine were twice the apparent KM value for substrate binding. […] Enzymatic reactions were performed in 50 μL of the assay mixture containing 0.1 M potassium phosphate buffer, pH 7.4. […] Reactions were initiated by the addition of 12.50 μL of MAO-A (to 5 μg/mL) or -B (to 10 μg/mL). The plate was incubated for 20 min at 37 °C, and the enzymatic reaction was terminated by the addition of 18.8 μL of 2N NaOH. Formation of the enzyme product, 4-hydroxyquinoline, was measured fluorometrically using a SpectraMax M5 fluorescence plate reader (Molecular Devices, Sunnyvale, CA, USA) with excitation (320 nm) and emission (380 nm) wavelengths and the Soft Max Pro program. The inhibition effects of enzyme activity were calculated as percent of product formation compared to the corresponding control (enzyme–substrate reaction) without inhibitors. Controls included the assays where the enzyme or the substrate was added after terminating the reaction to determine the interference with the fluorescence measurements. The IC50 values for MAO-A and -B inhibition were calculated from the concentration-dependent inhibition curves using XLFit® software.

human recombinant MAO A = conditions: cited from earlier work
human recombinant MAO B = conditions: cited from earlier work

Row | SMILES | Ki (human recombinant MAO-B [1]) [nM] | IC50 (human recombinant MAO-B [2]) [nM] | IC50 (human recombinant MAO A) [nM] | Selectivity Index MAO-A/B (human recombinant MAO B)
1 | COc1ccc(-c2cc(=O)c3c(O)cc(O)cc3o2)cc1 [Acacetin, reference compound] | 21 ± 1.8 | 42 ± 2.1 |  | 
2 | COc1cc(O)c2c(=O)c(O)c(-c3ccc(O)cc3)oc2c1 [Rhamnocitrin] |  |  | 51 ± 1 | 0.02

Source: paper PMC8533211, “Computationally Assisted Lead Optimization of Novel Potent and Selective MAO-B Inhibitors” (Biomedicines, 2021)
